Data taken from article PMC3251870 (British Journal of Cancer, 2011).

Chains of the proteins cited; added tags and fusions are not shown. Lines headed by an entry give the natural chain unless they say otherwise; changes in a name come on top.
UniProt Q9UQL6: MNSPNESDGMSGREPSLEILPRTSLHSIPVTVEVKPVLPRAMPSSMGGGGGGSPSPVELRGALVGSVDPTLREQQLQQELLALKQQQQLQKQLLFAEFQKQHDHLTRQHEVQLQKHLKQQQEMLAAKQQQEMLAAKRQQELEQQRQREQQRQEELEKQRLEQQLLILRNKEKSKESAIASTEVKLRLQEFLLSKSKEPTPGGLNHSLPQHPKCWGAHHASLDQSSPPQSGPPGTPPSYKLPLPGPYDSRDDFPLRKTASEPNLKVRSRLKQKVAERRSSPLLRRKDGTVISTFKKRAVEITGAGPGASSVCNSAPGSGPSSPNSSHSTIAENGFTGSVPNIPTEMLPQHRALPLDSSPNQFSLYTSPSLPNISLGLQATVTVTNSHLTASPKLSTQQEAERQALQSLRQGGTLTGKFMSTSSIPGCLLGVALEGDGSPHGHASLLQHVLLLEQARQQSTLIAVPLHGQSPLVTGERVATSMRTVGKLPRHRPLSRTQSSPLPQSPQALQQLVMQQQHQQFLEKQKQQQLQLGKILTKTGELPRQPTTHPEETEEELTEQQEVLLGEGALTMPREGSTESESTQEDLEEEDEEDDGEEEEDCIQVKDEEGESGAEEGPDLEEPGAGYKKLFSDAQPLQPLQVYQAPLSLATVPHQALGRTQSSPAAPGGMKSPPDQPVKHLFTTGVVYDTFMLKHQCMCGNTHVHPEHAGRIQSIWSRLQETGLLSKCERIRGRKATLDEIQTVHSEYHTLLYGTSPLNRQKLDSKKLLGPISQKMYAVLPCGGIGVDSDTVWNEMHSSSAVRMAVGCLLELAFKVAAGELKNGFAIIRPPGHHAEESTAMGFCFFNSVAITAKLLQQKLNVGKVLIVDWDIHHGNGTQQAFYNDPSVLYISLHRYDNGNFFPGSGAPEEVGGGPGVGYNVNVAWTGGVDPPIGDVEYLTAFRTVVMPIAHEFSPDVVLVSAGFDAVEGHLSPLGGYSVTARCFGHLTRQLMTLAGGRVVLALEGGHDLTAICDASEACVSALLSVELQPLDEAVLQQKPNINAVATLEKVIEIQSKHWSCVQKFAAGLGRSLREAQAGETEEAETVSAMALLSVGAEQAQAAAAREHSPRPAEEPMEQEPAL

Target: purified recombinant HDAC5 (Homo sapiens, UniProt Q9UQL6)
Experiment: HDAC fluorometric activity assay, purified HDAC5
Settings: data not shown

## trichostatin A
  inhibition of HDAC5 activity: similarly sensitive
